To fix the notation:
B1: L15-06 (antibody, V domains shown)
VH: EVQLLESGGGLVQPGGSLRLSCAASGFTFSSYYMSWVRQAPGKGLEWVADISVSGSYTNYADSVKGRFTISRDNSKNTLYLQMNSLRAEDTAVYYCARIGSYRSFFSTDDGDSLDYWGQGTLVTVSS
VL: not shown
B2: L15-07 (antibody, V domains shown)
VH: QVQLVQSGAEVKKPGSSVKVSCKASGGTFSTYAISWVRQAPGQGLEWMGGITPMFGTPNYAQKFQGRVTITADESTSTAYMELSSLRSEDTAVYYCARGDWYDYHFDYWGQGTLVTVSS
VL: QSALTQPASVSGSPGQSITISCTGTSSDVGGYNYVSWYQQHPGKAPKLMIYEVSNRPSGVSNRFSGSKSGNTASLTISGLQAEDEADYYCQSYANRDNFVVFGGGTKLTVL
B3: L15-08 (antibody, V domains shown)
VH: QVQLVESGGGLVKPGGSLRLSCAASGFTFSDYYMSWIRQAPGKGLEWVSDISVSSSYTNYADSVKGRFTISRDNAKNSLYLQMNSLRAEDTAVYYCARLGGYRSFFSTDDGDSLDYWGQGTLVTVSS
VL: not shown

This experiment addresses mouse LRRC15 (mouse, UniProt Q80X72 22-579). Description: FACS binding to CHO cells. In general terms: Flow cytometry measures light scatter and fluorescence of single cells or particles in a stream.
In general, EC50 refers to the concentration that produces a half-maximal response. Read a low EC50 as greater potency. On to B1, for which a half-maximal effect (EC50) was put at 1.17 nM.
Take B2: it took 186 nM to reach a half-maximal effect (EC50).
Next, B3: 1.78 nM.

(Values after patent US20250051444A1 (published 2025).)
